Data from US11261186B2, “Biaryl derivative as GPR120 agonist” (LG CHEM, LTD., priority 2014, dated 2022).

Protein sequences, listed by entry. Tags and fused reporters are not part of them.
UniProt Q5NUL3, whole entry: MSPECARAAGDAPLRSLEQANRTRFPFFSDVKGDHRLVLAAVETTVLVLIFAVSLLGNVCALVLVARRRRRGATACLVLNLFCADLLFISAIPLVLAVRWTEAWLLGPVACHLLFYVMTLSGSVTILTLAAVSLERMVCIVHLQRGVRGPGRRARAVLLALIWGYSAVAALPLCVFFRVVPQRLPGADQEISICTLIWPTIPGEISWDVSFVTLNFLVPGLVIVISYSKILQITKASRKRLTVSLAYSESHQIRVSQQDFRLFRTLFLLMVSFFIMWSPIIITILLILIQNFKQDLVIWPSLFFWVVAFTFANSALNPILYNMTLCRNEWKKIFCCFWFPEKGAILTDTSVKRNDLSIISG

Molecular target: hGPR120 (Homo sapiens, UniProt Q5NUL3)
Experiment: Measurement of Activity of GPR120 Agonist (Cell-Based Assay), Calcium 5 dye fluorescence
Conditions: CHO-K1 cells expressing Ga16 and hGPR120

EC50 | SMILES
< 200 nM | O=C(O)CC1CN(c2c(F)cc(-c3nccc(OC4CCC4)n3)cc2F)C1
< 200 nM | O=C(O)CC1CCN(c2c(F)cc(-c3nccc(Oc4ccc(Cl)cc4)n3)cc2F)CC1
< 200 nM | O=C(O)CCCOc1c(F)cc(-c2csc(COCC3CCC3)c2)cc1F
